Data reported in BindingDB's records for patent US11667637 (Theravance Biopharma R&D Ip, 2023).

Target: T1, Tyrosine-protein kinase JAK3 (Homo sapiens, UniProt P52333)
T1 sequence (P52333 whole entry): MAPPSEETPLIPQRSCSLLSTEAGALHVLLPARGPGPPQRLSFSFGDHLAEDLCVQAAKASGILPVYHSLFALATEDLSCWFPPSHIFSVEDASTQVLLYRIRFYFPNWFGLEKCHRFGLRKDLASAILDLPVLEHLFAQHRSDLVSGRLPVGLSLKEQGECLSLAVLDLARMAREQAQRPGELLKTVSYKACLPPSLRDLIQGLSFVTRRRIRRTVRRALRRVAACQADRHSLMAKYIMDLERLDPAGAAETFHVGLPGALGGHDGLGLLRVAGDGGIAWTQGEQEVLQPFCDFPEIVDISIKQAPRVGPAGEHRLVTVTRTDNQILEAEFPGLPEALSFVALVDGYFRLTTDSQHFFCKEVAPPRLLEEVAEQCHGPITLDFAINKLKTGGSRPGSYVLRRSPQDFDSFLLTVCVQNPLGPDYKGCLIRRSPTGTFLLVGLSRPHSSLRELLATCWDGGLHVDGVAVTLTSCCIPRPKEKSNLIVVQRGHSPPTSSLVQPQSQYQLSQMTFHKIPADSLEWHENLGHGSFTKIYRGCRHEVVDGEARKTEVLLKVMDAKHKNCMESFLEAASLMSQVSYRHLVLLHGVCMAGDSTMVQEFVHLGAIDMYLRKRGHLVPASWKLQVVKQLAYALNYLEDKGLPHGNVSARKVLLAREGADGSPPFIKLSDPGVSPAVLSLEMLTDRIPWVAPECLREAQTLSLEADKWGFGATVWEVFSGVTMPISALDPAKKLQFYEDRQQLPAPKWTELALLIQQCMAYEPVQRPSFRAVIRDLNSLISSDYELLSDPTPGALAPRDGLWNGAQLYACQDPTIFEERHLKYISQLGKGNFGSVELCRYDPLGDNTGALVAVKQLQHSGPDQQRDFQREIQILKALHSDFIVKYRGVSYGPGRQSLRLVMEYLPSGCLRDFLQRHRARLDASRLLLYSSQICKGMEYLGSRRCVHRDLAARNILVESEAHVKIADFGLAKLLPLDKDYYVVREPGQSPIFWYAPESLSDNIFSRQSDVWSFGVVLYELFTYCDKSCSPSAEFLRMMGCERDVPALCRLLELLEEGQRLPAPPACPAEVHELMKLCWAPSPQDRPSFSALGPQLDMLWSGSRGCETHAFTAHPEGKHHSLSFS
Assay: A panel of four LanthaScreen JAK biochemical assays (JAK1, 2, 3 and Tyk2) were carried in a common kinase reaction buffer (50 mM HEPES, pH 7.5, 0.01% Brij-35, 10 mM MgCl2, and 1 mM EGTA). Recombinant GST-tagged JAK enzymes and a GFP-tagged STAT1 peptide substrate were obtained from Life Technologies. Serially diluted compounds were pre-incubated with each of the four JAK enzymes and the substrate in white 384-well microplates (Corning) at ambient temperature for 1 h. ATP was subsequently added to initiate the kinase reactions in 10 μL total volume, with 1% DMSO. […] Kinase reactions were allowed to proceed for 1 hour at ambient temperature before a 10 μL preparation of EDTA (10 mM final concentration) and Tb-anti-pSTAT1 (pTyr701) antibody (Life Technologies, 2 nM final concentration) in TR-FRET dilution buffer (Life Technologies) was added. The plates were allowed to incubate at ambient temperature for 1 h before being read on the EnVision reader (Perkin Elmer).

Compound: CCCN1Cc2[nH]c(-c3n[nH]c4cc(-c5cc(F)c(O)cc5CC)ccc34)nc2C[C@H]1C(=O)N1CCN(CCO)C[C@H]1C [US11667637, Example 7]
- Ki: 0.16 nM
